{
  "sequences": {"note": "Protein sequences, listed by entry. Tags and fused reporters are not part of them. Residues count along the entry.", "UniProt P23795, 31-614 isoform 2 limits assumed": "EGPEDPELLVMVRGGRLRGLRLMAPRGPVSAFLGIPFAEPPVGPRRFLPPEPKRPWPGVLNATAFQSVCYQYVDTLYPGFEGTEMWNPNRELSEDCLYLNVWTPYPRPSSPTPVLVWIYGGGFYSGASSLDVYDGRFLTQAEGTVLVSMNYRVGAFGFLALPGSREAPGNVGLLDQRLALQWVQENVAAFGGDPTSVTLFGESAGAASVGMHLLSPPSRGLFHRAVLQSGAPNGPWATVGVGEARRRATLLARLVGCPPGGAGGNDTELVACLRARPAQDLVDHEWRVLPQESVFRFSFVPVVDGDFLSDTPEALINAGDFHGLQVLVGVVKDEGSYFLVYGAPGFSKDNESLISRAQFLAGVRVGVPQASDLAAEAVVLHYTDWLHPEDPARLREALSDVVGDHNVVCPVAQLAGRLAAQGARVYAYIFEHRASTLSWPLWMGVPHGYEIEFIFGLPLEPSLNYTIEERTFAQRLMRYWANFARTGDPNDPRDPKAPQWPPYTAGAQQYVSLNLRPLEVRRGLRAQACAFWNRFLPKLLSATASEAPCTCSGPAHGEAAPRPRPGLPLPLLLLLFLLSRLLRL", "UniProt P06276, 29-602 limits assumed": "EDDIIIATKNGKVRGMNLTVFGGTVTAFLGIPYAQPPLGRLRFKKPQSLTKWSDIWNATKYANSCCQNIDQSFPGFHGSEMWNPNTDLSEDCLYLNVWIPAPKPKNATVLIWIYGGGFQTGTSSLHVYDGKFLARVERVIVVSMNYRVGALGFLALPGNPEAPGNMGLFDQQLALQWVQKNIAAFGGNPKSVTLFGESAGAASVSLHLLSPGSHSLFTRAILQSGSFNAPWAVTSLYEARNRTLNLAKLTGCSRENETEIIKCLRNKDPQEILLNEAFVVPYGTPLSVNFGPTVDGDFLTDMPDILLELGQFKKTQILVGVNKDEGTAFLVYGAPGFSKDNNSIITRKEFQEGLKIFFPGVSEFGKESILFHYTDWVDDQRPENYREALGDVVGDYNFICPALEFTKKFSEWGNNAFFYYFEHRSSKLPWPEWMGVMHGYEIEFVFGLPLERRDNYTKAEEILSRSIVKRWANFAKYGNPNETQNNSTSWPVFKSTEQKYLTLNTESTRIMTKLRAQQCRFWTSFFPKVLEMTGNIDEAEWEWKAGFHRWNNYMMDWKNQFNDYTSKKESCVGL", "UniProt P22303, 32-614 limits assumed": "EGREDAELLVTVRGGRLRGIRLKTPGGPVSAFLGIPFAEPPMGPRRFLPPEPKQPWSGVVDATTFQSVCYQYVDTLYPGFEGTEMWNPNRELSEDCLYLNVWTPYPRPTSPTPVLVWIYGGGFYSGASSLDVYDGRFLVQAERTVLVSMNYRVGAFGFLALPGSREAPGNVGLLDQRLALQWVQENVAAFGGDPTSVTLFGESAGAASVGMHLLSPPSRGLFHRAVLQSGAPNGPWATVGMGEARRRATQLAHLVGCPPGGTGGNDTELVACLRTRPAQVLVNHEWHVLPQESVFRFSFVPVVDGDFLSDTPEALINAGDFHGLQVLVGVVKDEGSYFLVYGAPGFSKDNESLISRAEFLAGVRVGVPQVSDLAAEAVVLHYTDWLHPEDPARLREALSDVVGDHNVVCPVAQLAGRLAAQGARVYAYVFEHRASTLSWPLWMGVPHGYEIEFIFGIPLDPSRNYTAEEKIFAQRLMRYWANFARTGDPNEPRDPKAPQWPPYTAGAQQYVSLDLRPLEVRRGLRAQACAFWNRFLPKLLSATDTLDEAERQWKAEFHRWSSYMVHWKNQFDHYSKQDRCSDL"},
  "source": "patent US20060142323A1",
  "about": "“Dual binding site acetylcholinesterase inhibitors for the treatment of alzheimer's disease” (priority 2002, published 2006)",
  "key": {"[1]": {"target": "AChE from bovine erythrocytes (Bos taurus, UniProt P23795)", "experiment": "Acetylcholinesterase (AChE) inhibition (from bovine erythrocytes), Ellman method at 30° C., Digiscan 340T", "assay_type": "biochemical", "details": "read-out: IC50 AchE, 5 min preincubation"}, "BuChE from human serum": {"target": "BuChE from human serum (Homo sapiens, UniProt P06276)", "experiment": "Butyrylcholinesterase (BuChE) inhibition (from human serum)", "assay_type": "biochemical", "details": "read-out: IC50 BuChE, 30° C., 10 min preincubation"}, "[2]": {"system": "human neuroblastoma cell line SH—SY5Y", "experiment": "Toxicity measurement (LDH) in SH-SY5Y cells", "assay_type": "cell-based", "details": "24 hours exposure", "description": "The cytotoxicity effect of the molecules was tested in the human neuroblastoma cell line SH—SY5Y. These cells were cultured in 96-well plates in minimum essential medium, Han's F12 medium, supplemented with 10% fetal bovine serum, 1% glutamine and 1% penicillin/streptomycin, and grown in. a 5% CO2 humidified incubator at 37° C.\nThe cells were plated at 10^4 cells for each well, at least, 48 hours before the toxicity measure. Cells were exposed for 24 hours to the compounds at different concentrations (from 10^−5 to 10^−9), quantitative assessment of cell death was made by measurement of the intracellular enzyme lactate dehydrogenase (LDH) (citotoxicity detection kit, Roche). The cuantity of LDH was evaluated in a microplate reader Anthos 2010, at 492 and 620 nm. Controls were taken as 100% viability."}, "AChE peripheral site": {"target": "AChE peripheral site (Homo sapiens, UniProt P22303)", "experiment": "Propidium competition (fluorescence)", "assay_type": "binding", "details": "20 μM propidium iodide, AChE incubated at least 6 hours with compound"}},
  "note": "pIC50: −log10 of the molar value.",
  "data": [
    {"compound": "c1ccc2c(NCCCCCCCCCNc3c4ccccc4nc4ccccc34)c3c(nc2c1)CCCC3", "values": [
      {"measurement": "pIC50", "setting": "[1]", "value": 7.70},
      {"measurement": "pIC50", "setting": "BuChE from human serum", "value": 8.00},
      {"measurement": "Toxicity", "setting": "[2]", "value": 10, "unit": "µM"},
      {"measurement": "Propidium competition", "setting": "AChE peripheral site", "value": 100, "unit": "µM"}
    ]}
  ]
}
